Tests used:
Prothrombin [1] = molecular target: T1, Prothrombin (Homo sapiens, UniProt P00734); assay: Inhibition of thrombin (unknown origin) assessed as fibrin clot formation
Prothrombin [2] = molecular target: T1, Prothrombin; assay: Inhibition of human thrombin
Prothrombin [3] = molecular target: T1, Prothrombin; assay: Inhibition of free thrombin (unknown origin) using S2238 as substrate
Prothrombin [4] = molecular target: T1, Prothrombin; assay: Binding affinity to thrombin (unknown origin) by surface plasmon resonance analysis
Prothrombin [5] = molecular target: T1, Prothrombin; assay: Inhibition of plasma clot-bound thrombin (unknown origin) using S2238 as substrate

IC50 (Prothrombin [1]): 1580 nM
Ki (Prothrombin [2]): 4.5 nM
IC50 (Prothrombin [3]): 10.6 nM
Kd (Prothrombin [4]): 2.42 nM
IC50 (Prothrombin [5]): 92.4 nM
Structure (SMILES): CC1CNc2c(cccc2S(=O)(=O)N[C@@H](CCCNC(=N)N)C(=O)N2CC[C@@H](C)C[C@@H]2C(=O)O)C1 (stereo not given in full) [ARGATROBAN]
